From US7592163B2 (The Board of Trustees of the University of Illinois, priority 2004, dated 2009)

Legend:
[1] = tested on: Nicotinamide adenine dinucleotide phosphate reduced; assay: Kinetic analysis of N. crassa XR: initial rates, NAD(P)H consumption at 340 nm, with cofactors and sugar substrates; assay type: biochemical, Neurospora crassa; conditions: other: xylose reduction with the named coenzyme, 25° C., 50 mM MOPS pH 6.3
[2] = tested on: Nicotinamide adenine dinucleotide reduced; assay: as above; assay type: biochemical, Neurospora crassa; conditions: other: xylose reduction with the named coenzyme, 25° C., 50 mM MOPS pH 6.3
[3] = tested on: Nicotinamide adenine dinucleotide phosphate reduced; assay: purified protein, by the assay type; conditions: other: KM of the coenzyme, xylose 300 mM, 25° C., 50 mM MOPS pH 6.3
[4] = tested on: Nicotinamide adenine dinucleotide reduced; assay: purified protein, by the assay type; conditions: other: KM of the coenzyme, xylose 300 mM, 25° C., 50 mM MOPS pH 6.3
[5] = substrate: OC1OC[C@@H](O)[C@@H](O)[C@H]1O; assay: Kinetic analysis of N. crassa XR: initial rates, NAD(P)H consumption at 340 nm, with cofactors and sugar substrates; assay type: biochemical, Neurospora crassa; conditions: other: KM of the sugar substrate, NADPH as cofactor, 25° C., 50 mM MOPS pH 6.3

N. crassa XR (Neurospora crassa OR74A)
kcat [1]: 60 s⁻¹
kcat [2]: 5.17 s⁻¹ and 5.2 s⁻¹
Km [3]: 1.8 µM
kcat/Km [3]: 3.333e+07 M⁻¹ s⁻¹
Km [4]: 16 µM
kcat/Km [4]: 317000 M⁻¹ s⁻¹

B1: N. crassa XR (Neurospora crassa OR74A) (protein)
chain: MVPAIKLNSGFDMPQVGFGLWKVDGSIASDVVYNAIKAGYRLFDGACDYGNEVECGQGVARAIKEGIVKREELFIVSKLWNTFHDGDRVEPIVRKQLADWGLEYFDLYLIHFPVALEYVDPSVRYPPGWHFDGKSEIRPSKATIQETWTAMESLVEKGLSKSIGVSNFQAQLLYDLLRYAKVRPATLQIEHHPYLVQQNLLNLAKAEGIAVTAYSSFGPASFREFNMEHAQKLQPLLEDPTIKAIGDKYNKDPAQVLLRWATQRGLAIIPKSSREATMKSNLNSLDFDLSEEDIKTISGFDRGIRFNQPTNYFSAENLWIFG
kcat [5]: 52 ± 1.67 s⁻¹

“And” between values parts separate entries of the source, which are not always exact repeats. Identical values can stand only once.
